Literature values, collected in paper PMC11604869, “Stereoselective block of the hERG potassium channel by the Class Ia antiarrhythmic drug disopyramide” (Cellular and Molecular Life Sciences: CMLS, 2024).

Details: similar doses of each enantiomer

CC(C)N(CC[C@@](C(N)=O)(c1ccccc1)c1ccccn1)C(C)C [R(−) disopyramide]
mean total plasma concentrations: 6.33 µM

CC(C)N(CC[C@](C(N)=O)(c1ccccc1)c1ccccn1)C(C)C [S(+) disopyramide]
mean total plasma concentrations: 6.86 µM
